## scFv variants of Ab-95 (light chain) against a SARS-CoV-2 spike peptide

Target: peptide PDVDLGDISGINAS, taken from heptad repeat 2 (HR2) of SARS-CoV-2 spike.

Ab-95 is the parent antibody, in scFv form: VH, then a 15-residue (Gly4Ser)3 linker, then VL. The heavy chain is unchanged in all variants.
VH: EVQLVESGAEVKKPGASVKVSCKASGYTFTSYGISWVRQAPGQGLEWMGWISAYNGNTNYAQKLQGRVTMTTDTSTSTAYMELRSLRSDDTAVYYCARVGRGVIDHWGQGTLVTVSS
VL: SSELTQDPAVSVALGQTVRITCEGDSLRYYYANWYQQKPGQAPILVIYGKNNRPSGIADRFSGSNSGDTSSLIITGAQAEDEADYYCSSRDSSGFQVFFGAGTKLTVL

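In library AAYL52, one, two or three CDR residues were substituted; doubles and triples were drawn at random. In AlphaSeq, yeast of one mating type display the scFv and yeast of the other type display the target. Pairs that bind mate more often; barcode pairs of the diploids are counted by sequencing. Read counts were normalised to the haploid input and turned into Kd by a linear fit to BCL2-family pairs of known affinity, for each replicate. Mating was done three times.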

Each variant is given by its three light chain CDRs, as the data file delimits them; those of the parent are EGDSLRYYYAN, GKNNRPS, SSRDSSGFQVF.
Values are log10 of the apparent Kd in nM; lower means stronger binding.
The mean shown is taken over the replicates in which the pair was detected.
Where no diploid with the target was found in that replicate, the entry reads "nd": below detection, most likely a poor binder, though not proof of it.

2.99, nd, nd (controls 2 of 9): GGDSLRYYYAA, GKNNRPS, SSRDSPGFQVF.
2.99, 2.93, 3.01 (mean 2.98; controls 2 of 9): MGDSERYAYAN, GKNNRPS, SSRDSSGFQVF.
nd, 4.52, nd (controls 1 of 9): PGDPLRYYYAN, GKNNEPS, SSRDSSGFQVF.
4.58, nd, nd (controls 1 of 9): EGDFQRYYYAN, GKNNRPS, SWRDSSGFQVF.
2.47, 2.49, 2.47 (mean 2.48; controls 2 of 9): EGDSLRYYYAN, GKNNRPS, SSRDSNSFQVF.
5.23, nd, nd (controls 1 of 9): EGDSHRYYYAN, GKNNRPC, SSRDSSGFQNF.
2.79, 3.21, 3.09 (mean 3.03; controls 3 of 9): EGDSCRYYYAN, GKNNRPS, RSRDSSGFQTF.
nd, 4.88, nd (controls 2 of 9): EGDSLRYYYAN, GKNNWPS, SSRDMSGFQFF.
5.08, 3.82, 4.63 (mean 4.51; controls 5 of 9): EGDSLRYYYAN, SKNNRPS, SSTDSSGFTVF.
nd, 4.68, 3.55 (mean 4.11; controls 3 of 9): EGDSLRYYYAG, GKNNRPS, SSRDWSGFQIF.
2.39, 2.79, 1.82 (mean 2.33; controls 2 of 9): EGDHLRFYYAN, GKNNRPE, SSRDSSGFQVF.
4.00, nd, nd (controls 3 of 9): EGDSLRYYYAN, GKNNRPS, SSTDNSKFQVF.
1.96, 1.69, 1.32 (mean 1.66; controls 2 of 9): EGDSLRYTYAN, GKNNRPS, SSRDSSGFMVD.
nd, 5.64, nd (controls 1 of 9): EGDSVHYYYAN, GKNNIPS, SSRDSSGFQVF.
nd, 4.40, 4.68 (mean 4.54; controls 5 of 9): FGDSLRVYYAN, GKNNRPS, SSRDSSGFQSF.
nd, nd, nd (controls 1 of 9): EGDSLRYYYAN, WKNERPS, SSRDGSGFQVF.
2.87, 2.83, 2.78 (mean 2.83; controls 1 of 9): EGDSWRYYYAN, GKNNREG, SSRDSSGFQVF.
4.06, nd, nd (controls 4 of 9): EGDSLIYYYAN, GKNPRPS, SSRDSSGFQVF.
2.81, 2.53, 2.41 (mean 2.58; controls 1 of 9): QGDSLRYYYAN, GKNNGPS, SSRDSSGFQVF.
5.43, nd, nd (controls 1 of 9): EGDSLRYYYAN, GKNNRIS, SSHDSSGFSVF.
2.12, 2.64, 2.81 (mean 2.52; controls 2 of 9): EGDSLRYHYAN, GKNNRWS, SSRDSSGFPVF.
3.65, nd, 3.91 (mean 3.78; controls 3 of 9): EGDSLWYYYAN, GKNNRPS, ASRDSSGSQVF.
1.85, 1.75, 1.10 (mean 1.56; controls 2 of 9): EGDSLRYYQAN, GKNNRPS, CSRDSEGFQVF.
4.72, nd, nd (controls 2 of 9): KGDSLRYYYAF, GKNNRPS, SSRDSHGFQVF.
2.12, 2.35, 1.87 (mean 2.11; controls 3 of 9): EGDSLRYSYAN, GKNNRPS, SSREDSGFQVF.
5.45, nd, nd (controls 3 of 9): EGDSLRYYYAN, GKNNPDS, SSRDSSGWQVF.
nd, nd, nd (controls 0 of 9): EGDSPRYYYAN, GNNNRPS, WSRDSSGFQVF.
nd, 4.08, nd (controls 4 of 9): EGDSLTYYYGN, GKNNRPW, SSRDSSGFQVF.
nd, 4.44, nd (controls 1 of 9): EGDSLRYYYAN, GKNNRPT, SSRDSSGCQVF.
3.26, 5.60, nd (mean 4.43; controls 1 of 9): EGDFLQYYYAN, GKINRPS, SSRDSSGFQVF.
nd, 2.89, 3.51 (mean 3.20; controls 2 of 9): EGDSLRYYYAN, GKNNRPS, SSRDSSEFQGF.
4.44, 3.95, 4.66 (mean 4.35; controls 6 of 9): EGDSLRYYYAN, GSNNRPS, SSRDGSGFQVF.
2.69, 2.54, 2.28 (mean 2.50; controls 1 of 9): EGDSLRYYYAN, GKNNRAS, SSRDSSFSQVF.
4.31, 3.12, 4.35 (mean 3.93; controls 1 of 9): EYDSLRYYYAN, GKQNRPL, SSRDSSGFQVF.
4.82, nd, nd (controls 3 of 9): EGDSLRYYYAN, GKNNWPS, PSRDDSGFQVF.
nd, nd, nd (controls 3 of 9): EGDSLRYYYFN, GKNNRPS, SFRDHSGFQVF.
nd, nd, nd (controls 0 of 9): EGWSLRYYYAN, GKNNRPS, NSRDSSKFQVF.
3.74, 2.80, nd (mean 3.27; controls 2 of 9): EGDSLRYYYAN, LKNNRPS, SSADSSGEQVF.
3.70, 4.37, nd (mean 4.04; controls 4 of 9): EGDSWRYYYPN, GKNNRPS, PSRDSSGFQVF.
3.24, 3.90, 3.23 (mean 3.45; controls 4 of 9): EGTSLRYYYAN, GKNNRPR, SSRDSSGIQVF.
4.49, 4.00, 3.58 (mean 4.03; controls 4 of 9): EGDSPRYYYKS, GKNNRPS, SSRDSSGFQVF.
3.09, nd, nd (controls 2 of 9): EGDSLRWYEAN, GKNNRPS, SSRFSSGFQVF.
nd, 4.12, nd (controls 0 of 9): EGDSLRYYYAP, GKNNRPS, SIRISSGFQVF.
nd, nd, nd (controls 1 of 9): EGDSLRYYYAN, LKNNRPS, LSRISSGFQVF.
nd, nd, nd (controls 3 of 9): EGASLRYYYAN, GKNDRPS, SSRDSSNFQVF.
3.57, 2.73, nd (mean 3.15; controls 3 of 9): EGDLLRYYYAN, GKQNRPI, SSRDSSGFQVF.
3.40, nd, nd (controls 2 of 9): EGDSHRYYYFN, GKNNRPS, SSRDSSYFQVF.

Top 4 of the variants detected in all replicates, tightest first:

The variant EGDSLRYYQAN, GKNNRPS, CSRDSEGFQVF showed 1.85, 1.75, 1.10 (mean 1.56; controls 2 of 9).
The variant EGDSLRYTYAN, GKNNRPS, SSRDSSGFMVD showed 1.96, 1.69, 1.32 (mean 1.66; controls 2 of 9).
The variant EGDSLRYSYAN, GKNNRPS, SSREDSGFQVF showed 2.12, 2.35, 1.87 (mean 2.11; controls 3 of 9).
The variant EGDHLRFYYAN, GKNNRPE, SSRDSSGFQVF showed 2.39, 2.79, 1.82 (mean 2.33; controls 2 of 9).

For reference, the parent read 2.31 as the reference entry and 2.25 as a member of this library.
Background: pairings of library AAYL52 with three empty control strains gave a value in 28% of cases (median 3.91, 5th percentile 2.90). Values in that range, when seen in few replicates, are hard to tell from nonspecific mating. For each scFv, signals with the empty controls are counted beside the result.

The measurements come from Engelhart et al. 2022 (doi:10.1038/s41597-022-01779-4) through the FLAb antibody collection.